# Test results: PubChem BioAssay AID2599 (Sanford-Burnham Center for Chemical Genomics, 2010)
# By UniProt entry, the sequences of proteins in these tests, tags left out. Where a name states a change or a piece, a line headed by the entry shows the natural chain unless it says otherwise.
# UniProt Q9GZR1: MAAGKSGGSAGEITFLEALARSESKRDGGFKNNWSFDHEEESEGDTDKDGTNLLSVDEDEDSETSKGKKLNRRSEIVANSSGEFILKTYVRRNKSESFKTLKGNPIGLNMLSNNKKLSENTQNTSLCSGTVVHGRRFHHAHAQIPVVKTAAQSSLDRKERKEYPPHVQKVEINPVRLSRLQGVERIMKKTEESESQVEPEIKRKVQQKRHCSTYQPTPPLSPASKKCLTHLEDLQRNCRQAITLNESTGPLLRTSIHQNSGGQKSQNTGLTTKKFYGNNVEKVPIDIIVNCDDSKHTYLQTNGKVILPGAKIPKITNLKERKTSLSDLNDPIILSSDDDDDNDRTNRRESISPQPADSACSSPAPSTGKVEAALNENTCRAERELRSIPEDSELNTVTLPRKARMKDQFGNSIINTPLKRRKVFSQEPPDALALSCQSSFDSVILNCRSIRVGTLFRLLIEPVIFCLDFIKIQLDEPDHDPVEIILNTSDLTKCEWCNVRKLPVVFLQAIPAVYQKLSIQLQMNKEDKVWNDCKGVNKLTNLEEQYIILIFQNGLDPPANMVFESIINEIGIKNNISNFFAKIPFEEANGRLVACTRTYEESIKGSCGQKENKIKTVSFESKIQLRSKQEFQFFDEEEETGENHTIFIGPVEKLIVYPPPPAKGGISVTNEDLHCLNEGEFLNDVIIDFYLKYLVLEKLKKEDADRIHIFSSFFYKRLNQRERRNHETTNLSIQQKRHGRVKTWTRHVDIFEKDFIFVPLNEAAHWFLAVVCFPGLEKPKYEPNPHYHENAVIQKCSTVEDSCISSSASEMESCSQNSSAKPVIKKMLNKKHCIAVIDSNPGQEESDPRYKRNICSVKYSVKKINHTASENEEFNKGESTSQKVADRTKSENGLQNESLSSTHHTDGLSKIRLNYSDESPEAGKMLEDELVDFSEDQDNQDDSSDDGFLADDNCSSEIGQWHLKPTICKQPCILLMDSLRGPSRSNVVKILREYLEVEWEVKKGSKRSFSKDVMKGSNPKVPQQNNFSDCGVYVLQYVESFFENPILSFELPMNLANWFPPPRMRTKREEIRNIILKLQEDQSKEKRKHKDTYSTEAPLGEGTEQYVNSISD
# Only a part is listed here, and it is no random draw. Activity calls are given as the source filed them.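 Rule for the calls: active = inhibition above about 50% at the single tested dose (limit read from the data); inactive = the rest.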
# Target: Sentrin-specific protease 6 (Homo sapiens) (UniProt Q9GZR1)
# Assay: inhibition of human SENP6 catalytic domain – biochemical, luminescence, uHTS, primary screen (AID 2599);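 note: plate controls were DMSO wells with enzyme for no effect and DMSO wells lacking enzyme for full effect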
# Settings: Recombinant SENP6 catalytic domain, aminoluciferin luminescence; at 10 µM; hits give high values
row,Compound,inhibition
1,Cc1ccc(C(=O)OC2CN3CCC2CC3)cc1 (stereo unspecified),inactive: -0.733%
2,Cc1nn(-c2ccccc2)c2c1P(=O)(N1CCOCC1)N(C)C(c1ccccc1)=N2 (stereo unspecified),inactive: 5.48%
3,O=C(/C=C/c1ccccc1)OC1CN2CCC1CC2 (stereo unspecified),inactive: -5.74%
4,CN(C)C1(CNC(=O)c2ccc(S(C)(=O)=O)cc2)CCCCC1,inactive: -2.48%
5,O=P1(Nc2ncccn2)COc2ccccc2OC1,inactive: 4.06%
6,Cc1ccc(OCC(=O)OC2CN3CCC2CC3)cc1 (stereo unspecified),inactive: -18.4%
7,O=[As](O)(c1cccs1)c1cccs1,inactive: -3.46%
8,O=P1(Nc2ccc(Br)cn2)COc2ccccc2OC1,inactive: -13.9%
9,NS(=O)(=O)c1cccc(NC(=O)COC(=O)C(O)(c2ccccc2)c2ccccc2)c1,inactive: 3.92%
10,Nc1cccc([As](=O)(O)c2ccccc2)c1,inactive: -10.2%
11,O=P(Nc1ccccn1)(c1ccc(Br)cc1)c1ccc(Br)cc1,inactive: 2.94%
12,CN(C)C1(CNC(=O)c2ccc(Cl)c(S(N)(=O)=O)c2)CCCCC1,inactive: 11.2%
13,C[C@H]1OP(=O)(Oc2ccccc2)[C@H](O)[C@H](O)[C@H]1N=[N+]=[N-] (stereo partly specified),inactive: -18.1%
14,O=P(Nc1nc2ccccc2s1)(c1ccccc1)c1ccccc1,inactive: -5.03%
15,O=[N+]([O-])c1ncn(CCn2cnc([N+](=O)[O-])n2)n1,inactive: 0.988%
16,O=[As](O)(c1ccccc1)c1ccc(O)cc1,inactive: -25.6%
17,C(Cc1nn[nH]n1)Cc1nn[nH]n1,inactive: 5.42%
18,Nc1ccc([As](=O)(O)c2ccc([N+](=O)[O-])cc2)cc1,inactive: -22.1%
19,O=C(OC1CN2CCC1CC2)c1cccc(Cl)c1 (stereo unspecified),inactive: -2.24%
20,CC(C)C(=O)NC(Sc1ccccc1)C(Cl)(Cl)Cl (stereo unspecified),inactive: -31.8%
21,O=P(Nc1nccs1)(c1ccccc1)c1ccccc1,inactive: 5.21%

row,Compound,inhibition
1,c1nnnn1CCn1cnnn1,inactive: -9.98%
2,CCOc1ccc(C2=NCC(CBr)S2)cc1 (stereo unspecified),inactive: -21.6%
3,O=P1(Nc2nc3ccc(Cl)cc3s2)COc2ccccc2O1 (stereo unspecified),inactive: 1.41%
4,CC(C)(C)C(=O)NC(Sc1ccccc1)C(Cl)(Cl)Cl (stereo unspecified),inactive: 10.6%
5,CC(=O)c1ccc(N2CC2c2ccncc2)cc1 (stereo unspecified),inactive: 20.8%
6,C[C@H]1OP(=O)(Oc2ccccc2)C[C@@H]2O[C@@H]21 (stereo partly specified),inactive: -9.84%
7,C[C@@H]1C=CCP(=O)(Oc2ccccc2)O1 (stereo partly specified),inactive: 7.5%
8,Cc1ccccc1CN(C)C(=O)COC(=O)C(O)(c1ccccc1)c1ccccc1,inactive: -12.5%
9,CC(=O)Nc1ccc(Oc2c([N+](=O)[O-])cc([N+](=O)[O-])cc2[N+](=O)[O-])cc1,inactive: -15.5%
10,CC(=O)Nc1ccc([As](=O)(O)O)c(O)c1,inactive: -4.82%
11,CCNC(=S)/N=C(\N)N[N+](=O)[O-],inactive: -3.07%
12,O=C(NC1CCS(=O)(=O)C1)NP(=S)(Oc1ccccc1)Oc1ccccc1 (stereo unspecified),inactive: 2.5%
13,Cc1ccc(NP(=O)(Oc2cccc(C)c2)Oc2cccc(C)c2)nc1,inactive: -1.52%
14,CCOC(=O)NC(Sc1ccccc1)C(Cl)(Cl)Cl (stereo unspecified),inactive: 11.4%
15,c1ccc(-c2nn[nH]n2)c(-c2nn[nH]n2)c1,inactive: -14.9%
16,CC(=O)NC(SC(=S)N(CC(C)C)CC(C)C)C(Cl)(Cl)Cl (stereo unspecified),inactive: -8.45%
17,Cc1ccc(OP(=O)(Nc2ccccn2)Oc2ccc(C)cc2)cc1,inactive: -17.5%
18,COC(=O)c1cc2c(s1)N=C(c1ccccc1)N(C)P2(=O)N1CCOCC1 (stereo unspecified),inactive: -6.53%
19,CCC(=O)N1C2C3N(C(=O)CC)C1C1N(C(=O)CC)C(C(N1C(=O)CC)N3C(=O)CC)N2C(=O)CC,inactive: -20.9%
20,O=C(OC1CN2CCC1CC2)c1ccccc1 (stereo unspecified),inactive: -8.43%
21,CN(C)C(=O)Oc1noc2ccccc12,inactive: -1.52%

row,Compound,inhibition
1,CC(NC(=O)COC(=O)C(O)(c1ccccc1)c1ccccc1)c1ccccc1 (stereo unspecified),inactive: -6.3%
2,Cc1ccccc1OP(=O)(Nc1ccccn1)Oc1ccccc1C,inactive: -14.9%
3,CC(=O)Nc1ccc([As](=O)(O)O)cc1,inactive: -30.4%
4,O=C(O)c1ccccc1[As](=O)(O)O,inactive: -17.1%
5,O=P(Nc1nc2ccc(Cl)cc2s1)(c1ccccc1)c1ccccc1,inactive: -30.3%
6,Cc1ccc(NP(=O)(Oc2ccccc2F)Oc2ccccc2F)nc1,inactive: -10.5%
7,CN(C(=O)Cc1ccc(Cl)c(Cl)c1)[C@H]1CCCC[C@@H]1N1CCCC1,inactive: 3.56%
8,Cc1cc(SC(NC(=O)c2ccc(F)cc2)C(Cl)(Cl)Cl)ncn1 (stereo unspecified),inactive: -13.4%
9,CCOP(=O)(Nc1ccccc1)OCC,inactive: -2.62%
10,O=[N+]([O-])c1cc([N+](=O)[O-])c(CCN2CCOCC2)c([N+](=O)[O-])c1,inactive: 17.9%
11,CCN(N=Nc1nonc1N)c1nonc1N,inactive: 9.17%
12,NC(=O)c1cc([N+](=O)[O-])cc([N+](=O)[O-])c1N,inactive: -5.21%
13,Cc1ccc(N/C(=N/P(=O)(N2CCOCC2)N2CCOCC2)N2CCOCC2)cc1,inactive: 8.9%
14,CN(C(=O)Cc1ccc(Cl)c(Cl)c1)[C@H]1CCCC[C@H]1N1CCCC1,inactive: -4.53%
15,Cc1ccc(OP(=O)(Nc2nccs2)Oc2ccc(C)cc2)cc1,inactive: -16.8%
16,COc1ccccc1OP(=O)(Nc1ccc(C)cn1)Oc1ccccc1OC,inactive: -1.15%
17,CN1CCCC(OC(=O)C(c2ccccc2)c2ccccc2)C1 (stereo unspecified),inactive: -14%
18,Clc1ccc(Cl)c(NC2=NCC(CBr)S2)c1 (stereo unspecified),inactive: -7.28%
19,Nc1cc(N)c2nonc2c1[N+](=O)[O-],inactive: 24.9%
20,CC(C)CC(=O)NC(Sc1ccc(Cl)cc1)C(Cl)(Cl)Cl (stereo unspecified),inactive: 3.24%
21,O=C(NC(Sc1ccncn1)C(Cl)(Cl)Cl)c1ccccc1 (stereo unspecified),inactive: 3.9%

row,Compound,inhibition
1,Cc1c2non([O-])c-2c(C)[n+](=O)[n+]1[O-],inactive: 3.63%
2,Oc1ccccc1CNc1ccccn1,inactive: 4.03%
3,COc1ccc(C2=NCC(CBr)S2)cc1 (stereo unspecified),inactive: -2.09%
4,O=[N+]([O-])c1cccc2n[nH]nc12,inactive: -15%
5,CC(=O)N1C2C3N(C(C)=O)C1C1N(C(C)=O)C(C(N1C(C)=O)N3C(C)=O)N2C(C)=O,inactive: -20.3%
6,CCc1nc2c(n1)c1c(non1O)c1c2no[n+]1[O-],inactive: 7.31%
7,O=[N+]([O-])c1cc([N+](=O)[O-])c(CCNc2ccccc2)c([N+](=O)[O-])c1,inactive: 9.54%
8,Cc1ccc(NP(=O)(Oc2ccccc2)Oc2ccccc2)nc1,inactive: 9.37%
9,C[N+]1=C2C=CC=CC=C2SC12C([N+](=O)[O-])=CC([N+](=O)[O-])=C[C-]2[N+](=O)[O-] (stereo unspecified),inactive: -13.1%
10,Nc1ccc([As](=O)(O)c2ccc(N)cc2)cc1,inactive: 2.7%
11,CCN(/C(=N/P(=O)(N1CCOCC1)N1CCOCC1)N1CCOCC1)c1ccc(OC)cc1,inactive: -17.5%
12,CN(C)C(=O)OCCc1n(C)cc[n+]1C,inactive: -7.16%
13,CC(C)=N/N=C(\N)N[N+](=O)[O-],inactive: -25.6%
14,CC1CCN(C(=O)Oc2c(Cl)cc(Cl)c3cccnc23)CC1,inactive: 0.073%
15,O=C(Nc1cc([As](=O)(O)O)ccc1O)c1ccccc1,inactive: -2.5%
16,CC(C)(C)C(=O)NC(Sc1ccncn1)C(Cl)(Cl)Cl (stereo unspecified),inactive: 8.76%
17,O=[N+]([O-])c1ncn(CCn2ncnc2[N+](=O)[O-])n1,inactive: 21.4%
18,O=[N+]([O-])c1cccc(NC2=NCC(CBr)S2)c1 (stereo unspecified),inactive: 2.65%
